These results are taken from patent EP2330125A2 (priority 2005, dated 2007).

The target in experiment [1] is calcitonin receptor. The settings on record: read-out: IC50 in a CT receptor binding assay.
Experiment [2] addresses T1, GLP-1 receptor (Rattus norvegicus, UniProt P32301).
T1 construct: the receptor source is RINm5F cell membranes; endogenous in cells; host or cells: RINm5F cell membranes
T1 sequence (P32301 22-463): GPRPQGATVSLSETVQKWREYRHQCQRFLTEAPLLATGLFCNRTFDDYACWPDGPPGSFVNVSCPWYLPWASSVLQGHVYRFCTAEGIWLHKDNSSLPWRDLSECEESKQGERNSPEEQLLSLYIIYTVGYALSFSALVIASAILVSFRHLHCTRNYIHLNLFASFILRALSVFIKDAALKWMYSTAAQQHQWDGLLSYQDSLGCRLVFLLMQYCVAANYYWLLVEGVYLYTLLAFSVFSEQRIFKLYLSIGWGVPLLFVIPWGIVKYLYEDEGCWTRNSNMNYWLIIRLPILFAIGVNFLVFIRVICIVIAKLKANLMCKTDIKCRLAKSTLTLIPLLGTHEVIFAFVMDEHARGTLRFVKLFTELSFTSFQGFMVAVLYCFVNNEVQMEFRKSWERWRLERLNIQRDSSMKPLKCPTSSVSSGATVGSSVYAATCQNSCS
The settings on record: read-out: Receptor Binding Assay GLP-1.

On to “DF(P-CH2SO3)MGWNMFGKR KCNTATCATQRLANELVRLQTYPRTNVGSNTY [SEQ ID NO: 398]”, for which the IC50 in experiment [1] stood at 44 pM.
Take “^29βAla-βAla-Exendin(1-28),hAmylin(1-7)-^11,18Arg-sCt(8-27)-hAmylin(33-37) [Compound 14]”: the IC50 in experiment [2] was 300 pM.
As for “^29GlyGlyGly-Exendin(1-28),hAmylin(1-7)-^11,18Arg-sCt(8-27)-hAmylin(33-37) [Compound 15]”, the IC50 in experiment [2] is 400 pM.
